Data: PMC7307925, “Human Serum Albumin Binding in a Vial: A Novel UV-pH Titration Method To Assist Drug Design” (Journal of Medicinal Chemistry, 2020)

Test: UV-pH titration, pKa in aqueous medium (SiriusT3 fast UV pKa method)
Details: ionic strength adjusted water (0.15 M KCl), without HSA, Exp. aqueous pKa1 (pKa of monoprotic APIs), absence of HSA, ISA-water 0.15 M KCl, 25.0 °C

- pKa: 7.13 ± 0.01
SMILES: COc1cc(Cc2cnc(N)nc2N)cc(OC)c1OC [Trimethoprim]
